The target of experiment [1] is T1, APJ receptor (Homo sapiens (Human), UniProt P35414). Put plainly: biochemical. As for the experimental part: The human APJ receptor was cloned by polymerase chain reaction and the gene encoding the receptor was subcloned in pFLAG-CMV™-3 expression vector (Sigma, Saint Louis, Mo. USA) in-house at Amgen. A GTPγS binding assay was performed on membranes prepared from CHO cells stably expressing human APJ receptor. The optimum experimental conditions for the concentrations of GDP, MgCl2, and NaCl in the assay buffer were initially determined. The assay was performed in 9 μL assay buffer [20 mM HEPES, pH 7.5, 5 mM MgCl2, 100 mM NaCl and 0.1% (w/v) BSA], 1 μL of diluted test compound (starting with 0.75 mM, 2-fold serial dilution with DMSO, total 22 points), 10 μL of 18 µM GDP (final concentration of 3 μM GDP), 20 μL of […] membrane protein expressing human APJ receptor captured with WGA PS beads (final concentration of 5 μg per well), and 20 μL of 0.3 nM [^35S]GTPγS (final concentration is 0.1 nM [^35S]GTPγS)(Perkin Elmer Life and Analytical Sciences, Waltham USA).

By UniProt entry, the sequences of proteins in these tests, tags left out. Where a name states a change or a piece, a line headed by the entry shows the natural chain unless it says otherwise.
UniProt P35414: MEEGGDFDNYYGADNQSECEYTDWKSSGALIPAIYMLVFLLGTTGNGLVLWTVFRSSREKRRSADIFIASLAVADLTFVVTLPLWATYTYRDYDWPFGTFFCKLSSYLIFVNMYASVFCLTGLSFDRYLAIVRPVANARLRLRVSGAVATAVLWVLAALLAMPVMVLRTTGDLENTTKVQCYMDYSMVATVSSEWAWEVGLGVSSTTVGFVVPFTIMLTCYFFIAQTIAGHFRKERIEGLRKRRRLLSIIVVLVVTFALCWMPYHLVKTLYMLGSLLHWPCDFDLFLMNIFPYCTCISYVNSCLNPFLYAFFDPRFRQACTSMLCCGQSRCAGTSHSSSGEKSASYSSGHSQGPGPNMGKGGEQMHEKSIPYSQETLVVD

The target of experiment [2] is T1, APJ receptor. The following applies: cited from earlier work.

The term EC50 denotes the concentration needed to bring the measured effect to its halfway point. On APJ receptor [1], `CCc1nnc(NS(=O)(=O)[C@@H](C)[C@H](OC)c2ncc(Cl)cn2)n1-c1c(OC)cccc1OC` [Example 66.0, (1R,2S)-1-(5-chloropyrimidin-2-yl)-N-(4-(2,6-dimethoxyphenyl)-5-ethyl-4H-1,2,4-triazol-3-yl)-1-methoxypropane-2-sulfonamide] gave an EC50 of 2.3 nM.
Apelin-13: on APJ receptor [2], the “in vitro affinity to the APJ receptor relative to apelin-36” value is around 3.5 fold.

The values are drawn from patent US11191762B2, “Alkyl substituted triazole compounds as agonists of the APJ Receptor” (priority 2016, dated 2021).
